Test results taken from US20240166617A1, “PHOSPHOINOSITIDE 3 KINASE BETA INHIBITORS AND COMPOSITIONS AND METHODS THEREOF” (Geode Therapeutics Inc., priority 2021, published 2024).

Chains of the proteins cited; added tags and fusions are not shown.
UniProt P42336, whole entry: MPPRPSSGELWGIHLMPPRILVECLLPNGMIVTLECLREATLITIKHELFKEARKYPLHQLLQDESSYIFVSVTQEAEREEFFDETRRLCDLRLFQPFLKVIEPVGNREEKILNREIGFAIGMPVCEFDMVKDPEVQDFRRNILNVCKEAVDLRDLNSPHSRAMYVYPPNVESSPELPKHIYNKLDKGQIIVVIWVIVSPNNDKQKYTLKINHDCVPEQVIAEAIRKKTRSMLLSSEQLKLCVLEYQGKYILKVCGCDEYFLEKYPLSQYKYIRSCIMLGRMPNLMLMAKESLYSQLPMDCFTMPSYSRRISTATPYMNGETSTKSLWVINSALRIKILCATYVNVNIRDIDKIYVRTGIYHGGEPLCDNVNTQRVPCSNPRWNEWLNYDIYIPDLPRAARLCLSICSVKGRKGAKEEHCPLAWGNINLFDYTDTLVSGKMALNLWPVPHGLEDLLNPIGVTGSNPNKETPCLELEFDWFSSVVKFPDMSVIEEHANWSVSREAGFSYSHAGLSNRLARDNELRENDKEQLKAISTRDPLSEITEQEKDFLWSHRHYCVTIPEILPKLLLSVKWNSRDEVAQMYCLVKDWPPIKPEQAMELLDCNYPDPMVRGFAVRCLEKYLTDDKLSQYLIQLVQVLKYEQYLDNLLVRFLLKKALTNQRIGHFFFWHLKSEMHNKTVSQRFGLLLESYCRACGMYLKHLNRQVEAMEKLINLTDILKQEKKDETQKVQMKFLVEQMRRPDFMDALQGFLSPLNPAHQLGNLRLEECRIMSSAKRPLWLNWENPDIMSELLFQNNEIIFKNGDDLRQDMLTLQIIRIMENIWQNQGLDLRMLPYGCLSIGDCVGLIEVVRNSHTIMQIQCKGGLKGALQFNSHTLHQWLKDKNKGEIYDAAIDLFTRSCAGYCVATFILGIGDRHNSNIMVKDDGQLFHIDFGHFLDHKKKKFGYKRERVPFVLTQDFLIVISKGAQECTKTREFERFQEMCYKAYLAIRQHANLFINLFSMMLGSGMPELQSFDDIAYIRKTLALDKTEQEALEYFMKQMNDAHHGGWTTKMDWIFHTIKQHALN
UniProt P42338, whole entry: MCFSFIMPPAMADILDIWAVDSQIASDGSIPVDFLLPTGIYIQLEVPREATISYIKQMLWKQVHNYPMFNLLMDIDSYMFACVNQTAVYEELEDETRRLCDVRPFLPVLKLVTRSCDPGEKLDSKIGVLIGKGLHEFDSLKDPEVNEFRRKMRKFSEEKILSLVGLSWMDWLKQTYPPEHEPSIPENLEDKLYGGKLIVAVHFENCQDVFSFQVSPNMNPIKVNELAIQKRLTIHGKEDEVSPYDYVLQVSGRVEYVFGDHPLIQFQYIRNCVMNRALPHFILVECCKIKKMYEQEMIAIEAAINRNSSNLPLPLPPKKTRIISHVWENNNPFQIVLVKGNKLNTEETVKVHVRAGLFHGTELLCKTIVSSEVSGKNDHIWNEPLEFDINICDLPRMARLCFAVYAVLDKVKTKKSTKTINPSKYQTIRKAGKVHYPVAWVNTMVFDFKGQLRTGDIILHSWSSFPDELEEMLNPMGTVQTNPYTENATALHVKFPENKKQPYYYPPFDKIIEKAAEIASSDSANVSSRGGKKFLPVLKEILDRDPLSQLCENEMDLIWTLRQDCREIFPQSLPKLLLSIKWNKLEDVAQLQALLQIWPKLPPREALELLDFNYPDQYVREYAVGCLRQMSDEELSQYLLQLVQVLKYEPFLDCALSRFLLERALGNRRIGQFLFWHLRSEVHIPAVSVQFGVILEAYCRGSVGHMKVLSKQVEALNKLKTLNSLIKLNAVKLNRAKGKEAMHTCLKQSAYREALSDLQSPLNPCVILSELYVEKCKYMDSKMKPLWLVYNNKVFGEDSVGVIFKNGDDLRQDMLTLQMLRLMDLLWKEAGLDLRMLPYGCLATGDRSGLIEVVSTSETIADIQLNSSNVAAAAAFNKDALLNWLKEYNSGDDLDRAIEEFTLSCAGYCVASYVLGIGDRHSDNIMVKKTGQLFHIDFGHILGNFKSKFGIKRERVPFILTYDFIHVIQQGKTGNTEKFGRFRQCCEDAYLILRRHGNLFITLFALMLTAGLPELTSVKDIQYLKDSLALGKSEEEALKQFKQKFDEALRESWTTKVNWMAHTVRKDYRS
UniProt O00329, whole entry: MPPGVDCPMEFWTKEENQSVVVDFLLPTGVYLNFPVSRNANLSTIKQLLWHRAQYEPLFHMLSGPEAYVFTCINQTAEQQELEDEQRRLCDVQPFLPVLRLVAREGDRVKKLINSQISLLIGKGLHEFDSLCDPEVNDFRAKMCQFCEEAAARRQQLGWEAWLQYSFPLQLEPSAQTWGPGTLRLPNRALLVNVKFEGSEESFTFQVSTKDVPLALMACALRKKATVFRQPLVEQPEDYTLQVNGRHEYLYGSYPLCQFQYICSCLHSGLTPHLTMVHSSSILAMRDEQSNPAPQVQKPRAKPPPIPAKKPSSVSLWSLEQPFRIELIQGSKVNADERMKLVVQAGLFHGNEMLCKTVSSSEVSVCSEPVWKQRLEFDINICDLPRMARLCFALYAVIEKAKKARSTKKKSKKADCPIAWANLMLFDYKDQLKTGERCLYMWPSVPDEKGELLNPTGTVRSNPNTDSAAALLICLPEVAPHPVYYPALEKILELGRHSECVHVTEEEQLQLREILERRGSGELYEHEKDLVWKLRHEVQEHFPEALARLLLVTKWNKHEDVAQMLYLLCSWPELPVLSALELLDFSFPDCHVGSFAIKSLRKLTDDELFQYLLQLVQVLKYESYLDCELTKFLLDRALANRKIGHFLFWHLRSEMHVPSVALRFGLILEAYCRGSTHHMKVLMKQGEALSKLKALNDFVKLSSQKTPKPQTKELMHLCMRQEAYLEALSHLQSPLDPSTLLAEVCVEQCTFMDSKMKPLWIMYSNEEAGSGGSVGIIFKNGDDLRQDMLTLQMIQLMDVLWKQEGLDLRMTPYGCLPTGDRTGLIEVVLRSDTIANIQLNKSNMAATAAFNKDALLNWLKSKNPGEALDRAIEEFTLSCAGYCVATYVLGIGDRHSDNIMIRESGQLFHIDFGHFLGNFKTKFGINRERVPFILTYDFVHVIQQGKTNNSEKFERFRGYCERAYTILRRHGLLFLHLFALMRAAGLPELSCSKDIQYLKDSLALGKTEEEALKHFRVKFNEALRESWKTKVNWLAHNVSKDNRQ
UniProt P48736, whole entry: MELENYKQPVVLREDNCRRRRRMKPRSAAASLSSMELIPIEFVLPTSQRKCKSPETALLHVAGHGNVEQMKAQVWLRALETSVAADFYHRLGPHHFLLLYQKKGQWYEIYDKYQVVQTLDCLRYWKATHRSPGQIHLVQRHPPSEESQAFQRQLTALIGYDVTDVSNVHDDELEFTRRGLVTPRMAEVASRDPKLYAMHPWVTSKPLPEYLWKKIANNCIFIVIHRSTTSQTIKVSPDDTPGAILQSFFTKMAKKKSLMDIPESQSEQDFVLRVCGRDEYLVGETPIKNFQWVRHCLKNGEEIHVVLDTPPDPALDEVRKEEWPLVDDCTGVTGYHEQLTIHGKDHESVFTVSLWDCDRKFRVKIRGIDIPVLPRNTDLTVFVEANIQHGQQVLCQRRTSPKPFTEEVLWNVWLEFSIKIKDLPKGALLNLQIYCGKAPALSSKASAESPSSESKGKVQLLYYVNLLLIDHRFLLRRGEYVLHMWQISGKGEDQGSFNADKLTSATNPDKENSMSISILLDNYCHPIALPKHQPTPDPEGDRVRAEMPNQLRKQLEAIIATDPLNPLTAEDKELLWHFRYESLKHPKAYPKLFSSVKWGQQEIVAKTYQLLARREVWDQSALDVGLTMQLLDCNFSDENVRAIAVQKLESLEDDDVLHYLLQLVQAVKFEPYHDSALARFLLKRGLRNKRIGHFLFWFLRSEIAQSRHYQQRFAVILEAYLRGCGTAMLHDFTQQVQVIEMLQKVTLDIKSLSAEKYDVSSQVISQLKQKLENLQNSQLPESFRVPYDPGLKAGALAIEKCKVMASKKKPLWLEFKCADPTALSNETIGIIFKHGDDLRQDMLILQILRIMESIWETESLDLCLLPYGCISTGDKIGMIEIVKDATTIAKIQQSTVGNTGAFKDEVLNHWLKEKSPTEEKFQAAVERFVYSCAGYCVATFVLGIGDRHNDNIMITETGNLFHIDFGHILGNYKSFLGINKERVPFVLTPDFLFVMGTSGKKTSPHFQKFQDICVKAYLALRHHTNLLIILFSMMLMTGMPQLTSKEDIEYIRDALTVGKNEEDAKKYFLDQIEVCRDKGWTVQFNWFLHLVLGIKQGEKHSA

Tests used:
Assay in all cases: Enzyme binding assay (KINOMEscan)
[1] = target: PIK3Ca_h (Homo sapiens, UniProt P42336); conditions: read-out: Kd(nM) PIK3Ca_h, Eurofins DiscoveRx
[2] = target: PIK3Cb_h (Homo sapiens, UniProt P42338); conditions: read-out: Kd (nM) PIK3Cb_h, Eurofins DiscoveRx
[3] = target: PIK3Cd_h (Homo sapiens, UniProt O00329); conditions: read-out: Kd(nM) PIK3Cd_h, Eurofins DiscoveRx
[4] = target: PIK3Cg_h (Homo sapiens, UniProt P48736); conditions: read-out: Kd(nM) PIK3Cg_h, Eurofins DiscoveRx

In the case of CC(Nc1cc(F)cc(F)c1)c1cc(C(=O)N2CCC(N(C)C)C2)cn2c(=O)cc(N3CCOCC3)nc12 (stereo not shown), the Kd [1] is reported as greater than 10000 nM, the Kd [2] is reported as 740 nM and the Kd [3] is reported as greater than 10000 nM. For the same molecule, the Kd [4] was greater than 10000 nM.
